Data reported in patent US6960559B1, “Neurite growth regulatory factors” (University of Zurich, priority 1988, dated 2005).

Test system: C6 cells
Experiment: C6 cell spreading on CNS myelin or PLYS with protease inhibitors
Type: cell-based, rat
Conditions: spreading on PLYS minus spreading on CNS myelin
Protocol: Rat C6, mouse NIH 3T3 and B16 cells were cultured in Dulbecco's modified Eagle's medium (DMEM) supplemented with 10% fetal calf serum (FCS), usually to maximally 70-80% confluency. Cells were harvested with a short trypsin treatment (0.1% in Ca^2+/Mg^2+-free Hank's medium for 90 seconds) stopped by addition of FCS in excess, collected by centrifugation. Cells were resuspended in either DMEM/FCS or defined serum-free medium (MEM) and used for experiments. […]
Myelin from rat spinal cord (CNS) or sciatic nerve (PNS) purified on a discontinuous sucrose gradient as described in Section 6.1.5., was dried overnight onto PLYS coated wells (20 μg protein/well of 100 mm^2 surface). […] Experiments were scored at different time points using a phase contrast microscope equipped with a photocamera. Quantifications were done using a surface integration program; three arbitrary fields were photographed for each well at a magnitude of 80×, at least 25 cells per picture were measured. […] Results are expressed as μ^2 of projected cell surface, or as degree, which was calculated by subtracting from the projected surface value of a spreading cell, the surface value of a completely spheric cell.

Structure (SMILES): NCCCCCC(=O)O [6-amino-capronate]
- Inhibition on CNS (%): 0%
